Here are results for 13 compounds from article PMC8201645 (2020).

One assay addresses PPARγ (Homo sapiens, UniProt P37231).
Test: not given
The note with it: at 30 μM; TR-FRET competitive binding. In general terms: In TR-FRET formats the signal depends on donor and acceptor labels being close together.
With `O[C@@H]1[C@H](O)CS[C@H]1Cn1cnc2c(NCc3cccc(Cl)c3)nc(Cl)nc21` [4b, (2S,3R,4S)-2-((2-Chloro-6-((3-chlorobenzyl)amino)-9H-purin-9-yl)methyl)tetrahydrothiophene-3,4-diol], the PPARγ % replacement turned out to be 34.1% at 30 μM. Same read-out and setting: then `O[C@@H]1[C@H](O)CS[C@H]1Cn1cnc2c(NCc3cccc(I)c3)ncnc21` [4h, (2S,3R,4S)-2-((6-((3-Iodobenzyl)amino)-9H-purin-9-yl)methyl)-tetrahydrothiophene-3,4-diol], with 39.2% at 30 μM; and `O[C@@H]1[C@H](O)CS[C@H]1Cn1cnc2c(NCc3cccc(Cl)c3)ncnc21` [4f, (2S,3R,4S)-2-((6-((3-Chlorobenzyl)amino)-9H-purin-9-yl)methyl)-tetrahydrothiophene-3,4-diol], with 24.9% at 30 μM. In turn, `O[C@@H]1[C@H](O)CO[C@H]1Cn1cnc2c(NCc3cccc(F)c3)ncnc21` [4q, (2S,3R,4R)-2-((6-((3-Fluorobenzyl)amino)-9H-purin-9-yl)methyl)-tetrahydrofuran-3,4-diol] registered a PPARγ % replacement of 13.3% at 30 μM.

In the case of `O[C@@H]1[C@H](O)CS[C@H]1Cn1cnc2c(NCc3cccc(F)c3)ncnc21` [4e, (2S,3R,4S)-2-((6-((3-Fluorobenzyl)amino)-9H-purin-9-yl)methyl)-tetrahydrothiophene-3,4-diol], the PPARγ % replacement was found to be 24.4% at 30 μM.

Consider `CC#Cc1nc(NCc2cccc(Cl)c2)c2ncn(C[C@@H]3SC[C@@H](O)[C@H]3O)c2n1` [4j, (2S,3R,4S)-2-((6-((3-Chlorobenzyl)amino)-2-(prop-1-yn-1-yl)-9H-purin-9-yl)methyl)tetrahydrothiophene-3,4-diol], for which the PPARγ % replacement is listed as 41.7% at 30 μM. Same read-out and setting: then `O[C@@H]1[C@H](O)CS[C@H]1Cn1cnc2c(NCc3cccc(Br)c3)ncnc21` [4g, (2S,3R,4S)-2-((6-((3-Bromobenzyl)amino)-9H-purin-9-yl)methyl)-tetrahydrothiophene-3,4-diol], with 33.5% at 30 μM.

The assay is the same for the next values; noted with them: of GW1929.
Turning to `CC#Cc1nc(NCc2cccc(Cl)c2)c2ncn(C[C@@H]3SC[C@@H](O)[C@H]3O)c2n1` [4j, (2S,3R,4S)-2-((6-((3-Chlorobenzyl)amino)-2-(prop-1-yn-1-yl)-9H-purin-9-yl)methyl)tetrahydrothiophene-3,4-diol], the “maximum binding efficacy relative to GW1929 (PPARγ full agonist)” value is given as “around 40%”.

The target in a further assay is T1, PPARδ (Homo sapiens, UniProt Q03181).
T1 sequence (Q03181 171-441 limits assumed): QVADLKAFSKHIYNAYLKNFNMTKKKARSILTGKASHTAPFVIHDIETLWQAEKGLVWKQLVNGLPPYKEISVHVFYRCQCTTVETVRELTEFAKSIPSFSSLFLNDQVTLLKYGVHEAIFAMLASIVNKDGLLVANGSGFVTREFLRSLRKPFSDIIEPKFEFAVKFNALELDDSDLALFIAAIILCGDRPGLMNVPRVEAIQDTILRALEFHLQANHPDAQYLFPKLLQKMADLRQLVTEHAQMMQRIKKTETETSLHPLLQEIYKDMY
Test: not given
The note with it: at 30 μM; TR-FRET competitive binding.
In turn, `CC#Cc1nc(NCc2cccc(I)c2)c2ncn(C[C@@H]3SC[C@@H](O)[C@H]3O)c2n1` [4l, (2S,3R,4S)-2-((6-((3-Iodobenzyl)amino)-2-(prop-1-yn-1-yl)-9H-purin-9-yl)methyl)tetrahydrothiophene-3,4-diol] came in with a PPARδ % replacement of 15.9% at 30 μM. `CC#Cc1nc(NCc2cccc(F)c2)c2ncn(C[C@@H]3SC[C@@H](O)[C@H]3O)c2n1` [4i, (2S,3R,4S)-2-((6-((3-Fluorobenzyl)amino)-2-(prop-1-yn-1-yl)-9H-purin-9-yl)methyl)tetrahydrothiophene-3,4-diol] yielded a PPARδ % replacement of 13.8% at 30 μM.

For the compound `O[C@@H]1[C@H](O)CO[C@H]1Cn1cnc2c(NCc3cccc(F)c3)ncnc21` [4q, (2S,3R,4R)-2-((6-((3-Fluorobenzyl)amino)-9H-purin-9-yl)methyl)-tetrahydrofuran-3,4-diol], the PPARδ % replacement is reported as 14.6% at 30 μM. The compound `CC#Cc1nc(NCc2cccc(Br)c2)c2ncn(C[C@@H]3SC[C@@H](O)[C@H]3O)c2n1` [4k, (2S,3R,4S)-2-((6-((3-Bromobenzyl)amino)-2-(prop-1-yn-1-yl)-9H-purin-9-yl)methyl)tetrahydrothiophene-3,4-diol] gave a PPARδ % replacement of 15.3% at 30 μM. As for `O[C@@H]1[C@H](O)CO[C@H]1Cn1cnc2c(NCc3cccc(Br)c3)ncnc21` [4s, (2S,3R,4R)-2-((6-((3-Bromobenzyl)amino)-9H-purin-9-yl)methyl)-tetrahydrofuran-3,4-diol], the PPARδ % replacement is recorded as 16.5% at 30 μM. `O[C@@H]1[C@H](O)CO[C@H]1Cn1cnc2c(NCc3cccc(Cl)c3)ncnc21` [4r, (2S,3R,4R)-2-((6-((3-Chlorobenzyl)amino)-9H-purin-9-yl)methyl)-tetrahydrofuran-3,4-diol] returned a PPARδ % replacement of 10.6% at 30 μM.

The target of another assay is PPARδ ligand-binding domain. In words: FRET or BRET.
Conditions: not given
(BRET reads energy transfer from a luciferase to a nearby fluorophore.)
For the compound “fluorescein-labeled SMRT-ID2 corepressor peptide”, the EC50 of compound 4p (compound concentration) for binding of the peptide is 20.2 µM and the EC50 of compound 4d (compound concentration) for binding of the peptide was determined as 12.5 µM.
